Binding of CDR-mutated scFvs to a peptide of the spike HR2 region

Reference: Engelhart et al. 2022, doi:10.1038/s41597-022-01779-4. File: FLAb, binding data.

Target: peptide PDVDLGDISGINAS, taken from heptad repeat 2 (HR2) of SARS-CoV-2 spike.

Parent scFv Ab-91: VL joined to VH by the linker GGGGSGGGGSGGGGS. Changes lie in the heavy chain CDRs alone.
VL: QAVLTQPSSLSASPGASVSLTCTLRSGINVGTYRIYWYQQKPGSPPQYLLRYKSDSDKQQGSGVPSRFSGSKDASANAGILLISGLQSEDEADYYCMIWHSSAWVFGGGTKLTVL
VH: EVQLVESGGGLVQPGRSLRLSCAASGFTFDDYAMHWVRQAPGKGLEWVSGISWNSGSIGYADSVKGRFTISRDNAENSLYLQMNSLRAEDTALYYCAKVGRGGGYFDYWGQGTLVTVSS

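Phage display of a naive human antibody library on the peptide gave the parent. Variants in AAYL51 differ from the parent at up to three CDR positions; double and triple changes were sampled at random. The scFvs were displayed on barcoded MATa yeast, the peptide on MATalpha yeast. Binding brings cells together so that they mate, and sequencing counts the barcode pairs among the diploids. The ratio of observed to expected reads was calibrated, replicate by replicate, on BCL2-family standards whose Kd was known from biolayer interferometry. Mating was done three times.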

Each variant is given by its three heavy chain CDRs, as the data file delimits them; those of the parent are GFTFDDYAMH, GISWNSGSIGYADSVK, VGRGGGYFDY. Scale: log10 of Kd in nM, estimated from mating counts; low values are strong binders. The mean shown is taken over the replicates in which the pair was detected. A pair that was not seen in that replicate is written "nd"; this usually means weak binding, but a binder can also be missed. For reference, the parent read 1.86 as the reference entry and 0.88 as a member of this library.

CDR-H1	CDR-H2	CDR-H3	log10 Kd, replicates	mean log10 Kd (nM)	signal with controls
GFTFDVYAMA	GISWNCGSIGYADSVK	VGRGGGYFDY	nd nd nd	nd	1/9 (4.16)
GFTFDDYAMH	GISWNSKSIGVADSVK	VGRGGGYNDY	3.58 3.09 3.07	3.25	2/9 (5.45)
GFEFFDYAMH	GISWNSGSIGYADCVK	VGRGGGYFDY	2.48 2.22 2.26	2.32	2/9 (3.61)
LFTFDYYAMH	GISWNSGSIGYADSVK	VGRGGGYGDY	nd nd nd	nd	0/9
GFTFDDYAMH	GISWNSGSIGYADSVK	VGRGGNYFFY	1.76 1.81 1.70	1.76	4/9 (5.45)
GFQFDDYAMH	GVSWNSGSCGYADSVK	VGRGGGYFDY	1.80 2.33 3.35	2.49	3/9 (2.70)
GFTFDDYAMH	GVSWNSGSIGYADSQK	VGRGGWYFDY	nd 5.37 nd	5.37	3/9 (5.05)
GFTFDDYAMH	LLSWNSGSIGYADSVK	VGRGGGYFDY	5.66 4.39 5.41	5.15	7/9 (4.52)
GFTFDDYAMY	GIQWNSGSIGYADSVK	MGRGGGYFDY	nd nd nd	nd	1/9 (3.13)
GFTFDDKAMH	HISENSGSIGYADSVK	VGRGGGYFDY	nd nd nd	nd	0/9
GFTFKDYAMH	GISWNMGSISYADSVK	VGRGGGYFDY	nd nd 4.48	4.48	2/9 (4.00)
GFTFDDYAMH	GCSWNSGSIFYADSVQ	VGRGGGYFDY	nd nd nd	nd	1/9 (4.66)
GFTMDYYAMH	GISWNSGSIGYADSVK	VGRVGGYFDY	nd nd nd	nd	3/9 (4.31)
GFTFDDYAMH	GISWNSGSRGAADPVK	VGRGGGYFDY	nd nd nd	nd	0/9
GFTFDDFAMI	GISWNSGSIGYADSVK	VGRGGSYFDY	0.82 1.00 0.31	0.71	7/9 (5.27)
GFTFGDYFMH	GQSWNSGSIGYADSVK	VGRGGGYFDY	4.90 5.81 nd	5.35	0/9
GFTFDDYAMH	GISWNSGSIGYAMSFK	VGRGGGYFIY	3.62 3.28 3.41	3.44	2/9 (5.30)
GFTFDDYAMH	GISYNSGSIGYADSVK	VGRGGGCFDY	3.88 4.90 3.68	4.16	1/9 (3.66)
GFTFDDYAYH	GISWNSGSICSADSVK	VGRGGGYFDY	nd nd nd	nd	4/9 (4.45)
TFTFDDYAMH	GISWNSGSIGYADSVK	VGRGGGYFRH	nd nd nd	nd	2/9 (3.81)
GFTFGDYAMH	GISWNSGSIGAADSVK	VGRGGGEFDY	1.87 1.90 1.43	1.73	4/9 (5.00)
GFTFDDYAMH	IISWNSGSIGYADSVK	VGRGGQYIDY	nd nd nd	nd	1/9 (3.89)
GFTFDYYAMH	GISWNSGSIGYKDNVK	VGRGGGYFDY	nd nd nd	nd	1/9 (3.48)
GFTFDDYAMH	GISWNMGSIGYADSVK	VCRGGGYFKY	nd nd nd	nd	0/9
GFTFDDYAMH	GISWNSGSIGYADKVK	VVRGGCYFDY	nd nd nd	nd	0/9
GFTFDDYAMH	GISDNLGSIKYADSVK	VGRGGGYFDY	nd nd nd	nd	0/9
WFTFDDYAMH	GISWNSESIGYADSVK	VGHGGGYFDY	nd 3.99 nd	3.99	3/9 (4.38)
GFTFDDYIMH	GISWDSGSIGYADSVK	VGRGGGYFDA	nd nd nd	nd	0/9
GFTFDDYAMH	GISWNSGLIGGADSVK	VGRGGGYFWY	6.06 6.20 5.70	5.99	8/9 (5.34)
GFNFDDYAMH	GISWNSGSIGYADSVK	VGRGGGCCDY	1.85 1.83 1.42	1.70	3/9 (4.40)

The opening 5 entries, copied out:

CDR-H1	CDR-H2	CDR-H3	log10 Kd, replicates	mean log10 Kd (nM)	signal with controls
GFTFDVYAMA	GISWNCGSIGYADSVK	VGRGGGYFDY	nd nd nd	nd	1/9 (4.16)
GFTFDDYAMH	GISWNSKSIGVADSVK	VGRGGGYNDY	3.58 3.09 3.07	3.25	2/9 (5.45)
GFEFFDYAMH	GISWNSGSIGYADCVK	VGRGGGYFDY	2.48 2.22 2.26	2.32	2/9 (3.61)
LFTFDYYAMH	GISWNSGSIGYADSVK	VGRGGGYGDY	nd nd nd	nd	0/9
GFTFDDYAMH	GISWNSGSIGYADSVK	VGRGGNYFFY	1.76 1.81 1.70	1.76	4/9 (5.45)

Empty control strains, which show no peptide, gave a signal in 21% of pairings with library AAYL51; the median was 4.54 and 95% of these signals were weaker than 3.26. No background was subtracted. Also given: how often the same scFv was detected with the empty control strains, with their mean in brackets.